Data as given in PMC2363969 (British Journal of Cancer, 2001).

Tests used:
HLA-DRB1*0404 = HLA-DRB1*0404 (human); assay: radioligand binding; conditions: both partners purified
HLA-DRB1*0401 = HLA-DRB1*0401 (human); assay: radioligand binding; conditions: both partners purified

Binder | IC50 (HLA-DRB1*0404) [nM] | IC50 (HLA-DRB1*0401) [nM]
YGQMKNGSTPMFNDINIYDL (tyrosinase melanoma-associated antigen, residues 156-175; also called tyr.156-175; tyr156; source: synthetic peptide (FMOC chemistry, UPCI Peptide Synthesis Facility), >90% pure) [tyrosinase 156-175] | 953 | –
EKVPVSEVMGTTLAEMSTPEAT (gp100/pmel17 melanoma-associated antigen, residues 377-398; also called gp100377-398; g377; source: synthetic peptide (FMOC chemistry, UPCI Peptide Synthesis Facility), >90% pure) [gp100/pmel17 377-398] | 92 | –
IYRRRLMKQDFSVPQLPHS (gp100/pmel17 melanoma-associated antigen, residues 615-633 on gp100 numbering, 622-640 on pmel17 numbering; also called gp100615-633 (identical to pmel17622-640 ); g615; source: synthetic peptide (FMOC chemistry, UPCI Peptide Synthesis Facility), >90% pure) [gp100 615-633 / pmel17 622-640] | 9 | –
ALHIYMNGTMSQVQGSA (also called tyr.365-381N; tyr365N; source: synthetic peptide (FMOC chemistry, UPCI Peptide Synthesis Facility), >90% pure) [tyrosinase 365-381N] | 174 | 1740
MTPAEVSIVVLSGTTAAQVTTT (gp100/pmel17 melanoma-associated antigen, residues 400-421; also called gp100400-421; g400; source: synthetic peptide (FMOC chemistry, UPCI Peptide Synthesis Facility), >90% pure) [gp100/pmel17 400-421] | – | 148
